From PubChem BioAssay
UUG fidelity = alters start codon recognition fidelity in yeast. 350,000 tested, 0.13% active. activity score, % at 18.7 µM. S. cerevisiae UUG-firefly luciferase reporter, luminescence/redox ratio;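 active = replicate mean at a twofold rise or more, about +100% in these data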;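 also: firefly luciferase made from a UUG start codon reports start codon fidelity; reporter light over untreated wells divided by growth signal over untreated wells; some hits fall short of that in this replicate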
PglD inh = C. jejuni PglD acetyltransferase inhibitors, primary screen, biochemical, DTNB colorimetric, single point | purified PglD enzyme, DTNB colorimetric CoA detection | inhibition, % at 12.5 µM | 360,000 tested, 0.098% active | UDP-N-acetylbacillosamine N-acetyltransferase PglD (Campylobacter jejuni); in the data active = inhibition above about 16%, passing the limit was not always enough; inconclusive = no clear call, values can overlap the other calls
esBAF inh = Bmi1 luciferase reporter increase in mESCs, primary screen, esBAF inhibitor project, mouse ES cells, Bmi1 luciferase knock-in, single point. 24 h; 100% = twice the neutral-well signal. reporter increase, % at 12.5 µM. 350,000 tested, 2% active. AID 602393, 2012; in the data active = activation above about 40%; inconclusive = no clear call, values can overlap the other calls;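 note: 0% = median of the plate's neutral control wells and 100% = double that signal; a rise in the Bmi1 reporter signal indicates esBAF inhibition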
Wnt bcat act = Wnt/beta-catenin pathway activators, primary screen, cell-based, plate reader, single point; Wnt/beta-catenin reporter cell assay, activator; activation, % at 9.35 µM; 300,000 tested, 1.2% active; AID 743398, 2014; in the data active = activation above about 30%, passing the limit was not always enough; inconclusive = no clear call, values can overlap the other calls;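 note: 0% = neutral control wells and 100% = positive control wells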
MITF act = activators of MITF-driven TRPM1 promoter reporter, primary screen, cell-based, SK-MEL-5, luciferase, single point; SK-MEL-5 TRPM1-promoter luciferase, 24 h; % of positive control, neutral wells = 0; activation, % at 12.5 µM; 300,000 tested, 0.75% active;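 active = mean activation of at least 80% with every replicate also reaching 80%; inconclusive = mean reaches 80% but some replicate falls short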;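 note: 0% = neutral control wells and 100% = parthenolide positive control wells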
miR122 inh = miR-122 Renilla sensor signal increase in Huh7, primary screen, miR-122 inhibitor project, cell-based, single point, plate reader; Huh7 miR-122 Renilla luciferase sensor, 48 h; neutral wells = 0, positive control = 100; activation (reporter increase), % at 12.5 µM; 340,000 tested, 0.3% active; AID 602342, 2012;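 active = mean replicate activation score at least 90 and every replicate individually at or above 90; inconclusive = only one of the two criteria met; inactive = neither criterion met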;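 note: higher luciferase means less miR-122 activity so hits act as miR-122 inhibitors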
The depositor's hits bear a star; ? = inconclusive; . = not tested or not shown; [ ] = another dose, or the depositor's remark. Sampled rows, rich in hits. Any-hit rate of the full collection: about 2.8%.

UUG fidelity | PglD inh | esBAF inh | Wnt bcat act | MITF act | miR122 inh | compound
. | . | . | 36.4* | 15.6 | 2.4 | O=C(O)CC1=C(Nc2ccccc2)C(=O)N(c2ccccc2)C1c1ccc(Br)cc1 (stereo not drawn)
-26.0 | -2.8 | 64.9* | . | 27.0 | 10.4 | Oc1c(-c2cc(-c3ccco3)[nH]n2)ccc2ccccc12
8.8 | -0.7 | 61.8* | . | 44.5 | 12.3 | Oc1ccccc1-c1cc(-c2ccco2)[nH]n1
-13.1 | 0.2 | . | . | -11.1 | 4.5 | Oc1ccc(Br)cc1-c1cc(-c2ccco2)[nH]n1
-33.7 | -6.1 | 11.3 | 6.0 | -4.2 | 8.9 | Oc1ccc(Cl)cc1-c1cc(-c2ccco2)[nH]n1
7.8 | -2.3 | 0.8 | . | . | -2.0[16.7 µM] | CN1C(=O)c2cc(NC(=O)Nc3ccc(Cl)cc3)ccc2OC[C@H]2O[C@@H](CC(=O)O)CC[C@H]21
-13.1 | -1.2 | 4.2 | . | . | -4.1[16.7 µM] | C[C@H](CO)N1C[C@H](C)[C@@H](CN(C)Cc2ccc(Oc3ccccc3)cc2)Oc2ccc(NC(=O)Nc3cccc4ccccc34)cc2C1=O
-8.7 | 2.5 | -3.0 | . | . | 2.3[16.7 µM] | COc1cccc(-c2ccc3n(c2=O)C[C@@H]2[C@@H](CO)[C@H](C(=O)N(C)C)N(C(=O)C4CCC4)[C@H]32)c1
-11.5 | 2.3 | 87.5* | . | ? | . | Cn1c(SCc2ccc(C#N)cc2Cl)nc2ccccc21
-14.4 | -1.1 | 8.8 | . | . | -8.8 | O=C(Nc1nc2ccccc2s1)C1CCCO1 (stereo not drawn)
-23.3 | 4.8 | 98.6* | . | 112.2* | 3.5 | O=C(Nc1nc2ccc(F)cc2s1)C1CCCO1 (stereo not drawn)
-13.8 | -3.3 | 9.4 | . | 10.7 | -4.2 | O=C(Nc1nnc(-c2ccncc2)s1)C1CCCO1 (stereo not drawn)
-19.9 | -6.0 | . | 51.2* | 66.2 | 2.1 | O=C(Nc1nnc(-c2ccccc2F)s1)C1CCCO1 (stereo not drawn)
-19.5 | -1.7 | 51.6* | 48.4* | 60.4 | 0.6 | Nc1ccc2nc(NC(=O)C3CCCCC3)sc2c1
-11.0 | -1.9 | 2.6 | . | . | -4.8[16.7 µM] | CC(=O)N1CCCCN2[C@H](CO)[C@@H](c3ccc(-c4ccncc4)cc3)[C@@H]2C1
. | . | 55.5* | -2.1 | . | -6.3 | CC(=O)N1CC2(CC(c3ccccc3F)=NO2)CN1c1ccc(Cl)cc1 (stereo not drawn)
16.6 | -5.1 | 8.0 | -2.1 | . | 2.2 | CC(C)N1CC2(CC(c3ccc(Cl)cc3Cl)=NO2)CN1C(=O)c1ccc(C(C)(C)C)cc1 (stereo not drawn)
-7.6 | 4.9 | 7.9 | . | 5.1 | 6.7 | Cc1csc2nc(CSc3nncn3-c3ccccc3)c(Br)n12
. | . | . | . | 90.9* | -2.8 | Cc1csc2nc(CSc3nc4ccccc4o3)c(Br)n12
-20.8 | 8.2 | . | -2.1 | -4.2 | 238.2* | O=C1C(Oc2ccccc2)C(c2ccc3c(c2)OCO3)N1CCc1ccc(F)cc1 (stereo not drawn)
-33.3 | 3.4 | 36.1 | 32.7* | -49.0 | 6.4 | O=C(Nc1ccc(Cl)cc1)Nc1ccccc1Sc1ncc([N+](=O)[O-])s1
. | . | . | 26.8 | . | . | O=C(Nc1csc([N+](=O)[O-])c1)Nc1ccccc1Cl
-9.5 | -3.8 | -7.6 | 32.4* | -12.8 | -7.4 | CCN1C(=O)/C(=C/C=C2/Sc3ccccc3N2CCO)SC1=S
8.0 | 2.3 | -0.4 | . | . | -41.7[16.7 µM] | CCCNC(=O)N1[C@H](CNC(=O)c2ccc(F)cc2)[C@H](c2ccccc2)[C@@H]1CO
-4.7 | -4.0 | 51.3* | -2.6 | . | 11.1 | COc1ccccc1NC(=O)COc1ccc(CO)cc1Cl
-14.1 | 3.9 | 51.1* | 45.8* | 114.2* | -11.6 | COc1cccc(COc2ccc3c(C)cc(=O)oc3c2)c1
-15.0 | -4.0 | 66.5* | 21.7 | 60.9 | . | Cc1cc(=O)oc2cc(OCCc3ccccc3)ccc12
1.0 | 0.6 | -3.4 | . | . | -3.7[16.7 µM] | CN1C(=O)c2cc(NC(=O)c3ccc(C(F)(F)F)cc3)ccc2OC[C@@H]2O[C@H](CC(=O)O)CC[C@@H]21
. | . | -0.7 | . | . | 2.5[16.7 µM] | C[C@@H]1CCCCO[C@H](CN(C)C)[C@@H](C)CN([C@@H](C)CO)C(=O)c2cc(NC(=O)c3ccccc3)ccc2O1
0.9 | -5.2 | 4.2 | 42.4* | 67.3 | -9.3 | CN(C)c1ccc(N=Nc2ccc(S(N)(=O)=O)cc2)cc1
-1.8 | -1.0 | 2.5 | . | . | 9.5[16.7 µM] | C[C@H](CO)N1C[C@H](C)[C@H](CN(C)C(=O)c2ccccc2)Oc2cc(C#CC3CC3)ccc2S1(=O)=O
-3.2 | 0.6 | -3.2 | . | . | -8.9[16.7 µM] | Cc1noc(C)c1NC(=O)N[C@H]1CC[C@H](CC(=O)NCCCN(C)C)O[C@@H]1CO
-12.7 | 5.8 | 56.5* | 20.0 | 48.5 | 7.8 | Cc1cc(C)n2nc(C(=O)Nc3ccc4c(c3)CCC4)nc2n1
-24.1 | -3.4 | 78.5* | 51.5* | 68.0 | 0.6 | O=C(Nc1ccc2c(c1)CCC2)Nc1ccccc1Cl
-5.5 | -2.0 | 7.1 | 2.5 | 23.0 | 3.9 | Cc1ccc(NC(=O)Nc2ccc3c(c2)CCC3)c(C)c1
-5.5 | 1.4 | -3.7 | -1.5 | -5.9 | 1.3 | Cc1cc(C)n2nc(C(=O)Nc3ccc(S(=O)(=O)N4CCCC4)cc3)nc2n1
-6.2 | -2.5 | 48.0* | 14.8 | 28.3 | . | CCOc1ccccc1NC(=O)Nc1ccc2c(c1)CCC2
-15.3 | -0.5 | 51.9* | 23.7 | 29.2 | . | Cn1ncc(Cl)c1C(=O)Nc1ccc2c(c1)CCC2
-8.3 | 1.4 | . | -4.1 | -4.1 | 9.6 | COC(=O)c1cc(NC(=O)c2c(Cl)cnn2C)cc(C(=O)OC)c1
-6.2 | -1.1 | 4.3 | . | . | 10.8[16.7 µM] | O=C(C[C@@H]1C[C@H]2c3cc(NC(=O)Nc4ccccc4)ccc3O[C@H]2[C@H](CO)O1)NCc1cccc(F)c1

Entries of single compounds as entered above:
COC(=O)c1cc(NC(=O)c2c(Cl)cnn2C)cc(C(=O)OC)c1 is listed as UUG fidelity = -8.3; PglD inh = 1.4; esBAF inh = .; Wnt bcat act = -4.1; MITF act = -4.1; miR122 inh = 9.6
C[C@H](CO)N1C[C@H](C)[C@H](CN(C)C(=O)c2ccccc2)Oc2cc(C#CC3CC3)ccc2S1(=O)=O is listed as UUG fidelity = -1.8; PglD inh = -1.0; esBAF inh = 2.5; Wnt bcat act = .; MITF act = .; miR122 inh = 9.5[16.7 µM]

Carrying on.
UUG fidelity | PglD inh | esBAF inh | Wnt bcat act | MITF act | miR122 inh | compound
26.0 | -4.2 | 1.7 | . | . | -11.4[16.7 µM] | COCC#Cc1ccc([C@@H]2[C@@H](CO)N3CCCCN(S(=O)(=O)c4ccccc4F)C[C@@H]23)cc1
-7.9 | 0.5 | 1.5 | . | . | . | O=C(Cc1ccccc1)N[C@@H]1CC[C@H](CC(=O)N2CCCCC2)O[C@H]1CO
-32.6 | -1.7 | 48.9* | . | . | -5.9 | O=C(CC(Nc1ccc(F)cc1)C(=O)O)c1ccccc1 (stereo not drawn)
-2.3 | 4.8 | -0.7 | . | . | 0.0[16.7 µM] | CN(C)C(=O)C[C@H]1CC[C@H]2[C@@H](COC[C@H](O)CN2C(=O)c2ccncc2)O1
-8.7 | -1.1 | -4.3 | . | . | . | CCCc1cn(CC[C@H]2CC[C@H](NC(=O)CCN3CCCCC3)[C@H](CO)O2)nn1
. | 1.1 | -0.4 | . | . | . | CO[C@H](CN(C)C(=O)Nc1ccc(F)cc1)[C@@H](C)CN(Cc1ccccc1Cl)[C@H](C)CO
16.0 | -2.4 | 38.5 | 13.2 | 15.7 | 1.6 | COc1ccc(OCc2cc(C(=O)N(C)C3CCOCC3)no2)c2ccccc12

Another view of some results above.
| canonical_smiles | UUG fidelity | PglD inh | esBAF inh | Wnt bcat act | MITF act | miR122 inh |
| --- | --- | --- | --- | --- | --- | --- |
| O=C(Cc1ccccc1)N[C@@H]1CC[C@H](CC(=O)N2CCCCC2)O[C@H]1CO | -7.9 | 0.5 | 1.5 | . | . | . |
| CO[C@H](CN(C)C(=O)Nc1ccc(F)cc1)[C@@H](C)CN(Cc1ccccc1Cl)[C@H](C)CO | . | 1.1 | -0.4 | . | . | . |
